Reference: article PMC6973020, “Quinoline‐Conjugated Ruthenacarboranes: Toward Hybrid Drugs with a Dual Mode of Action” (Chemmedchem, 2019)
“Also recorded” adds a separate entry of the source.

Assay: Stability in water‐containing DMSO‐d6 (NMR spectroscopy)
Format: physicochemical
Method: NMR spectroscopy. To determine the stability in biocompatible organic solvents, 3–5 (each ca. 3 mg) were dissolved in water‐containing DMSO‐d6 (0.6 mL) in air at room temperature, and periodically frozen (4–5 °C) and unfrozen. The solutions were analyzed with ^1H and ^11B{^1H} NMR spectroscopy over a period of one month.

Substance: closo ‐[3‐(η^6‐p‐Cymene)‐1‐[(7‐chloroquinolin‐4‐yl)oxy]butyl acetate)‐3,1,2‐RuC2B9H10] [Compound 5]
- second tautomer present in DMSO‐d6 (25 °C, 1H NMR): ca. 5%
- stability in water‐containing DMSO‐d6 solution (in air, 1H and 11B{1H} NMR, over one month): no changes in the ^11B{^1H} NMR spectrum; also recorded: sufficient chemical stability
